Literature values, collected in US20210147507A1, “METHODS TO AUGMENT OR ALTER SIGNAL TRANSDUCTION” (Bellicum Pharmaceuticals, Inc., priority 2017, published 2021).

By UniProt entry, the sequences of proteins in these tests, tags left out. Where a name states a change or a piece, a line headed by the entry shows the natural chain unless it says otherwise.
UniProt P62942: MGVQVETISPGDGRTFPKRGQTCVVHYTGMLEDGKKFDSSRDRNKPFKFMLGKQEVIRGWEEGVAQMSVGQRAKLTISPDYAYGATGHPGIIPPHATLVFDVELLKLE

How the values were obtained:
[1] = target: wt FRB (K2095 T2098 W2101) (Homo sapiens, UniProt P42345+P62942); conditions: cited from earlier work
FRB-KLW = FRB-KLW (Homo sapiens, UniProt P42345+P62942, T2098L); conditions: cited from earlier work

S-o,p-dimethoxyphenyl (DMOP)-rapamycin
EC50 [1]: ~1000 nM | EC50 (FRB-KLW): ~5 nM
